{"source": "patent US11066399B2", "about": "“Ferroportin inhibitors” (Vifor (International) AG, priority 2015, dated 2021)", "system": "anemic Wistar rats", "assay": "Prevention of iron absorption in anemic rats", "assay_type": "in vivo", "details": "Rattus norvegicus, 3 h, Dose 30 mg/kg oral, 1 h before 0.5 mg/kg ferrous sulfate, read-out: Serum Iron Inhibition (%) at 3 h", "procedure": "To assess the in vivo efficacy of ferroportin (Fpn) inhibitors to block iron absorption, a series of Fpn inhibitors were tested in an anemic rat model for iron absorption. Wistar rats (3-4 weeks old, n=5, Janvier Labs) were fed a low iron diet (Provimi-Kliba, Cat. 2039) until their hemoglobin (Hb) values reach 7-8 g/dl one day before dosing of the Fpn inhibitor compounds. One hour before oral application of 0.5 mg/kg of ferrous sulfate, test compounds formulated in methyl cellulose or Cremophor were dosed orally. Blood samples were taken by tail vein puncture one hour before administration of iron (−1 h), immediately after dosing of the Fpn inhibitors (0 h) and one hour (1 h), three hours (3 h) and occasionally up to 6 hours (6 h) after dosing of the test compounds. Serum iron levels were measured (Abbott Diagnostics, Cat. 6K95) and inhibition of the rise of serum iron three hours after dosing of the test compound was calculated as a measure for efficacy of the Fpn inhibitors in blocking iron absorption (Table 7).", "note": "Where a name gives a salt, the structure may show the parent alone."}
{"smiles": "Cc1cccnc1CNC(=O)c1csc(CCNCc2nc3ccccc3[nH]2)n1", "note": "[Example Compound No. 55, 2-{2-[(1H-1,3-Benzodiazol-2-ylmethyl)amino]ethyl}-N-[(3-methylpyridin-2-yl)methyl]-1,3-thiazole-4-carboxamide Trihydrochloride]", "values": [{"measurement": "inhibition in vivo at 30 mg/kg", "value": 89, "unit": "%"}]}
